Measurements as given in patent US9951335B2, “Compositions and methods for treating otitis media and other conditions with inhibitors of CYLD” (Georgia State University Research Foundation, Inc., priority 2012, dated 2018).

Tested on: K63-polyubiquitinated Akt
Test: In vitro cell-free deubiquitination of K63-polyubiquitinated recombinant Akt
Format: biochemical
Conditions: cell-free system; dose-dependent manner
From the text: FIG. 6 illustrates CYLD deubiquitinates K63-polyubiquitinated Akt to reduce Smad3. (a) Lysates from A549 cells co-transfected with HA-Ub WT, Flag-Akt WT, Flag-WT-CYLD or Flag-H/N-CYLD were immunoprecipitated with anti-Akt antibody and analysed by immunoblotting with the indicated antibodies. (b) Cells were co-transfected with Flag-Akt, HA-CYLD, or siCYLD and treated with S. pneumoniae. Akt was pulled down with Flag probe and immunoblotted against Ubiquitin (Ub), Akt, and CYLD. (c) Cells transfected with control vector or Flag-WT-CYLD were treated with S. pneumoniae, and cell lysates were immunoprecipitated with anti-Akt1 antibody and analysed by immunoblotting with the indicated antibodies. […] (e) Lysates from A549 cells co-transfected with Flag-Akt WT, Flag-WT-CYLD, HA-Ub WT, HA-Ub K63, or HA-Ub K48 were immunoprecipitated with anti-Akt antibody, and analysed by immunoblotting with the indicated antibodies. (f) Recombinant Akt1 (His-rAkt1) was incubated with recombinant K63 ubiquitin (His-rUb-K63) with or without recombinant CYLD (GST-rCYLD) in in vitro ubiquitination assay buffer (BostonBiochem) and analysed by immunoblotting with the indicated antibodies. […] (h) Lysates from cells co-transfected with HA-Ub K63, Flag-Akt WT, or Flag-Akt KR mutants (K8R, K14R, K20R or K30R) were immunoprecipitated with anti-Flag probe and analysed by immunoblotting with the indicated antibodies. […]

B1: GST-rCYLD: recombinant CYLD protein (protein)
chain: MSSGLWSQEKVTSPYWEERIFYLLLQECSVTDKQTQKLLKVPKGSIGQYIQDRSVGHSRIPSAKGKKNQIGLKILEQPHAVLFVDEKDVVEINEKFTELLLAITNCEERFSLFKNRNRLSKGLQIDVGCPVKVQLRSGEEKFPGVVRFRGPLLAERTVSGIFFGVELLEEGRGQGFTDGVYQGKQLFQCDEDCGVFVALDKLELIEDDDTALESDYAGPGDTMQVELPPLEINSRVSLKVGETIESGTVIFCDVLPGKESLGYFVGVDMDNPIGNWDGRFDGVQLCSFACVESTILLHINDIIPALSESVTQERRPPKLAFMSRGVGDKGSSSHNKPKATGSTSDPGNRNRSELFYTLNGSSVDSQPQSKSKNTWYIDEVAEDPAKSLTEISTDFDRSSPPLQPPPVNSLTTENRFHSLPFSLTKMPNTNGSIGHSPLSLSAQSVMEELNTAPVQESPPLAMPPGNSHGLEVGSLAEVKENPPFYGVIRWIGQPPGLNEVLAGLELEDECAGCTDGTFRGTRYFTCALKKALFVKLKSCRPDSRFASLQPVSNQIERCNSLAFGGYLSEVVEENTPPKMEKEGLEIMIGKKKGIQGHYNSCYLDSTLFCLFAFSSVLDTVLLRPKEKNDVEYYSETQELLRTEIVNPLRIYGYVCATKIMKLRKILEKVEAASGFTSEEKDPEEFLNILFHHILRVEPLLKIRSAGQKVQDCYFYQIFMEKNEKVGVPTIQQLLEWSFINSNLKFAEAPSCLIIQMPRFGKDFKLFKKIFPSLELNITDLLEDTPRQCRICGGLAMYECRECYDDPDISAGKIKQFCKTCNTQVHLHPKRLNHKYNPVSLPKDLPDWDWRHGCIPCQNMELFAVLCIETSHYVAFVKYGKDDSAWLFFDSMADRDGGQNGFNIPQVTPCPEVGEYLKMSLEDLHSLDSRRIQGCARRLLCDAYMCMYQSPTMSLYK
modifications: left off: a dimerising Fc or GST
notes: recombinant CYLD protein
K63-linked polyubiquitination of Akt (His-rAkt) in vitro: directly deubiquitinates
